Test system: estrogen synthesis
Assay: in vivo inhibition of aromatase activity: inhibition of estrogen synthesis in rats (ovarian estrogen content)
Conditions: Rattus norvegicus, po, read-out: dose at which estrogen synthesis is inhibited

How did the minimal effective dose turn out when N#Cc1ccc(C(c2ccc(C#N)cc2)n2ccnc2)cc1 [Example 2a, 4-[alpha-(4-cyanophenyl)-1-imidazolylmethyl]-benzonitrile] was run?
The minimal effective dose was ~1.5 µg/kg.

Source: patent publication US5112845A, “Alpha-heterocycle substituted tolunitriles” (Ciba-Geigy Corporation, priority 1990, dated 1992)
